Test results published in patent US9580508B2, “Bispecific EGFR/c-Met antibodies” (Janssen Biotech, Inc., priority 2012, dated 2017).

What was measured:
[1] = system: NCI-H292 cells; assay: NCI-H292 growth/viability with antibodies (standard 2D and low attachment); assay type: cell-based, human; conditions: NCI-H292, […] HGF, 72 hours
[2] = system: NCI-H1975 cells; assay: NCI-H1975 growth/viability with antibodies (standard 2D and low attachment); assay type: cell-based, human; conditions: NCI-H1975, […] HGF, 72 hours
[3] = system: NCI-H292 cells; assay: ADCC assay, NCI-H292 target cells; assay type: cell-based, human
[4] = system: NCI-H1975 cells; assay: ADCC assay, NCI-H1975 target cells; assay type: cell-based, human
[5] = system: NCI-H441 cells; assay: ADCC assay, NCI-H441 target cells; assay type: cell-based, human
[6] = system: NCI-H1993 cells; assay: ADCC assay, NCI-H1993 target cells; assay type: cell-based, human
[7] = system: NCI-H292-HGF cells; assay: NCI-H292-HGF xenograft tumor efficacy with EM1-mAb; assay type: in vivo, SCID Beige mice; conditions: H292-HGF small tumor, day 35, 20 mg per kg
[8] = system: SKMES-HGF human squamous cell carcinoma; assay: SKMES-HGF xenograft tumor efficacy with EM1-mAb; assay type: in vivo, SCID Beige mice
[9] = system: SNU-5 cells; assay: SNU-5 xenograft tumor efficacy; assay type: in vivo, CR17/SCID mice; conditions: SNU-5 gastric, day 34, 10 mg/kg BIWx4wk
[10] = system: H1975 cells; assay: H1975 xenograft tumor efficacy; assay type: in vivo, nude mice; conditions: H1975 NSCLC, day 18, mAbs 10 mg/kg BIWx3wk, erlotinib 50, afatinib 15 mg/kg QDx21d
[11] = system: H1975 cells expressing human HGF; assay: H1975-HGF xenograft tumor efficacy; assay type: in vivo, nude mice; conditions: H1975-HGF NSCLC, day 16; mAbs 10 mg/kg BIWx3wk, erlotinib 50, afatinib 15 mg/kg QDx21d
[12] = system: H292-HGF human lung cancer xenograft
[13] = read-out: Standard 2D culture IC50
[14] = SKMES-HGF large tumor, day 35, 20 mg per kg
[15] = SKMES-HGF small tumor, day 67, 20 mg per kg

## cetuximab
[1]; read-out: Low attachment IC50
  IC50: 212 nM
[1]; [13]
  IC50: > 700 nM
[2]; read-out: Low attachment IC50
  IC50: > 700 nM
[2]; [13]
  IC50: > 700 nM
[3]
  Efficacy (maximum lysis achieved): 12%
  Potency (EC50 μg/ml): 0.0064 µg/mL
[4]
  Efficacy (maximum lysis achieved): 11%
  Potency (EC50 μg/ml): 0.029 µg/mL
[5]
  Efficacy (maximum lysis achieved): 15%
  Potency (EC50 μg/ml): 0.013 µg/mL
[6]
  Efficacy (maximum lysis achieved): 21%
  Potency (EC50 μg/ml): 0.0042 µg/mL
[7]
  Complete regression: 0/10
  Partial regression: 0/10
[8]; [14]
  Complete regression: 0/7
  Partial regression: 0/7
[8]; SKMES-HGF lung squamous, day 36, 20 mg/kg BIWx4wk, 20 mg/kg
  % TGI (day of study); compared to PBS vehicle: 88% and 88 (36) %
[8]; [15]
  Complete regression: 6/8
  Partial regression: 0/8
[8]; SKMES-HGF, 20 mg/kg
  T − C (days) at 1000 mm^3: 31 days
[8]; SKMES-HGF, day 1, 20 mg/kg
  Tumor volume (mm^3): 98 ± 5 mm^3
[8]; SKMES-HGF, day 8, 20 mg/kg
  Tumor volume (mm^3): 60 ± 8 mm^3
[8]; SKMES-HGF, day 15, 20 mg/kg
  Tumor volume (mm^3): 44 ± 23 mm^3
[8]; SKMES-HGF, day 22, 20 mg/kg
  Tumor volume (mm^3): 42 ± 23 mm^3
[8]; SKMES-HGF, day 29, 20 mg/kg
  Tumor volume (mm^3): 85 ± 60 mm^3
[8]; SKMES-HGF, day 36, 20 mg/kg
  T/C (%): 13%
  Tumor volume / Tumor Size (mm^3) at day 36: 125 ± 62 mm^3
[8]; SKMES-HGF, day 50, 20 mg/kg
  Tumor volume (mm^3): 423 ± 115 mm^3
[8]; SKMES-HGF, day 57, 20 mg/kg
  Tumor volume (mm^3): 650 ± 116 mm^3
[8]; SKMES-HGF, day 67, 20 mg/kg
  Tumor volume (mm^3): 1257 ± 151 mm^3
[9]
  % TGI (day of study); compared to PBS vehicle: 49% and 49 (34) %
[10]
  % TGI (day of study); compared to PBS vehicle: 91 (18) %
[10]; listed as Cetuximab
  % TGI (day of study); compared to PBS vehicle: 91%
[11]
  % TGI (day of study); compared to PBS vehicle: 42 (16) %
[12]; day 7 (start of treatment)
  Tumor volume (mm^3): 139 ± 10 mm^3
[12]; day 9
  Tumor volume (mm^3): 168 ± 13 mm^3
[12]; day 13
  Tumor volume (mm^3): 212 ± 20 mm^3
[12]; day 16
  Tumor volume (mm^3): 252 ± 28 mm^3
[12]; day 20
  Tumor volume (mm^3): 371 ± 48 mm^3
[12]; day 27
  Tumor volume (mm^3): 640 ± 82 mm^3
[12]; day 30
  Tumor volume (mm^3): 869 ± 100 mm^3
[12]; mouse, in vivo
  Antitumor activity / response: significant antitumor activities
  Tolerability / body weight loss: well tolerated
[12]; tumor growth delay vs vehicle
  T − C (days) at 1000 mm^3: 17 days

Where “and” joins values, the source holds several entries; their conditions need not be identical. Equal values may be shown once. Read-outs that look alike come from different tables or passages of the source.
